Data from patent US20240342161A1, “BISBENZYLISOQUINOLINES AS CONDITIONING AGENTS FOR IMMUNE THERAPY” (priority 2023, published 2024).

What was measured:
bcr-abl = details: 10 μM; for abl only / bcr-abl and abl colonies / bcr-abl only / both negative: number of colonies
β-catenin = β-catenin protein level in K562 cell extracts by western blot; details: K562 cells treated with >10 uM
[1] = IV, cited from earlier work
[2] = cited from earlier work
beta-Actin = beta-Actin level in K562 cell extracts by western blot; details: K562 cells treated with up to 40 uM
[3] = system: CML colonies, secondary clonal growth; details: colonies from original cultures with ES-3000 @ 10 μM
[4] = system: human chronic myeloid leukemia (CML) progenitors; details: colony number, methylcellulose-based medium
CAMKII gamma = CAMKII gamma (Homo sapiens, UniProt Q13555); assay: CAMKII gamma kinase activity (ADP Glo); type: biochemical; details: 10 uM ATP, inhibitor 250 uM
[5] = system: human colorectal (HCT116) cells; details: cited from earlier work
[6] = system: human breast, colon carcinoma, and hepatoma cell lines; details: read-out: IC50 range; cited from earlier work
[7] = system: colorectal (CT-26) mouse xenografts; details: cited from earlier work
[8] = Primary colonies, of 17 analysed
[9] = Secondary colonies, of 10 analysed

With `COc1ccc2cc1Oc1ccc(cc1)C[C@H]1c3cc(c(OC)cc3CCN1C)Oc1c(OC)c(OC)cc3c1[C@H](C2)N(C)CC3` the abl only (bcr-abl; Primary colonies) was 1, the “bcr-abl and abl colonies” value (bcr-abl; Primary colonies) was 11 and the bcr-abl only (bcr-abl; Primary colonies) was 1. The both negative (bcr-abl; Primary colonies) was 4, the “colonies abl positive only” value (bcr-abl; [8]) was 5.8% and the “colonies bcr-abl and abl positive” value (bcr-abl; [8]) was 65%. The “colonies bcr-abl positive only” value (bcr-abl; [8]) was 5.8, the “colonies negative for both targets” value (bcr-abl; [8]) was 23.5% and the “colonies bcr-abl and abl positive” value (bcr-abl; Primary colonies, of 17 analysed, listed as Tetrandrine) was 64.7%. The abl only (bcr-abl; Secondary colonies) was 1, the “bcr-abl and abl colonies” value (bcr-abl; Secondary colonies) was 0 and the bcr-abl only (bcr-abl; Secondary colonies) was 0. The both negative (bcr-abl; Secondary colonies) was 9, the “colonies negative for both bcr-abl and abl” value (bcr-abl; [9]) was 90% and the “colonies positive for abl only” value (bcr-abl; [9]) was 10%. For the same compound, the “beta-catenin level (quantitation of protein bands)” value (β-catenin) was “significantly less”, the “recommended dose for a Phase II study” value ([1]; daily×5, repeated every 2 weeks) was 200 mg/m2 and the “recommended dose for a Phase II study” value ([1]; single dose repeated weekly) was 300 mg/m2. For the same compound, the protein binding [2] was “highly protein bound”, the “beta-Actin level (quantitation of protein bands)” value (beta-Actin) was “not affected significantly” and the “average CFC per well” value [3] was “three”. The “wells supported secondary growth with one or more colony” value [3] was 54.2%, the BFU-E ([4]; 0.1 μM) was 22 ± 4 and the CFU-E ([4]; 0.1 μM) was 11 ± 1. For the same compound, the CFU-GM ([4]; 0.1 μM) was 55 ± 5, the “Total CFC” value ([4]; 0.1 μM) was 88 ± 8 and the “Total Erythroid” value ([4]; 0.1 μM) was 33 ± 3. It also gave a BFU-E ([4]; 1 μM) of 22 ± 4, a CFU-E ([4]; 1 μM) of 10 ± 2 and a CFU-GM ([4]; 1 μM) of 54 ± 2. The “Total CFC” value ([4]; 1 μM) was 86 ± 4, the “Total Erythroid” value ([4]; 1 μM) was 33 ± 3 and the BFU-E ([4]; 3 μM) was 14 ± 3. For the same compound, the CFU-E ([4]; 3 μM) was 9 ± 2, the CFU-GM ([4]; 3 μM) was 52 ± 5 and the “Total CFC” value ([4]; 3 μM) was 75 ± 6. For the same compound, the “Total Erythroid” value ([4]; 3 μM) was 23 ± 2, the CFU-GM ([4]; 10 μM) was 26 · and the Total CFC ([4]; 10 μM) was 26 ···. The “% DMSO” value (CAMKII gamma) was 9%, the “wnt/β-catenin signaling and tumor growth” value [5] was “inhibit wnt/β-catenin signaling and tumor growth” and the IC50 [6] was 1.53 to 10.4 µM. For the same compound, the tumor growth [7] was “reduced tumor growth by inducing apoptosis”.

Like-named read-outs stand apart in the source and are kept apart here.
